Values quoted from earlier work, collected in publication PMC3783652.
pKd: −log10 of the molar value.

Protein sequences, listed by entry. Tags and fused reporters are not part of them. Residues count along the entry.
UniProt P48061, 22-89: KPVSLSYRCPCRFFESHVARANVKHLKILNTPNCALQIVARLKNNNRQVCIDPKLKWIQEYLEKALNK

Biological target: CXCL12 (Homo sapiens) (UniProt P48061)

For CXCL12 (from UniProt P48061), the pKd is given as 3.85.
